Experimental water solubility values from OPERA 2.9

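OPERA's authors assembled the values from existing databases and did not measure them anew. One number stands for a compound and property, with no spread given. Method and conditions are not stated for these values. Where a salt, mixture or single isomer is drawn, the source does not say that exactly this form was tested. Some entries may be limits or estimates that an upstream database listed as plain numbers.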

Solubility in water is on a log10 molar scale (set defined at 25 °C).
"n/a" marks a cell with nothing listed here.

structure (SMILES)	name	log solubility (log10 mol/L)
O=C(NCCCCCCNC(=O)NCc1ccccc1)NCc1ccccc1	Urea, N,N''-1,6-hexanediylbis[N'-(phenylmethyl)-	-6.827
C[C@]12CCC(=O)C=C1CC[C@@H]1[C@@H]2[C@@H](O)C[C@]2(C=O)[C@@H](C(=O)CO)CC[C@@H]12	Aldosterone	-3.85
CC1(C)CC(N)C(C)(C)N1O.N.[Cl-].[Cl-].[Pt+2] (stereo not drawn)	n/a	-2.645
Clc1ccc(Oc2c(Cl)c(Cl)c(Cl)c(Cl)c2Cl)c(Cl)c1	2,2',3,4,4',5,6-Heptachlorodiphenyl ether	-9.64
CC=CC1=C(C(=O)O)N2C(=O)[C@@H](NC(=O)[C@H](N)c3ccc(O)cc3)[C@H]2SC1	Cefprozil	-3.417
O=C1CCCCCCCCCCOCCCCO1	12-Oxahexadecanolide	-4.018
CCOC(=O)Nc1ncnc2nc[nH]c12	Ethyl 1H-purin-6-ylcarbamate	-2.94
Cn1cc(C(O)=Nc2ccc(F)cc2-c2ccc(Cl)c(Cl)c2)c(C(F)F)n1	Bixafen	-5.932
O=C(O)c1ccoc1	3-Furoic acid	-0.243
CC1CCC(C(C)C)C2(C1)OCC(CO)O2 (stereo not drawn)	n/a	-2.279
CCCCN(CCCC)c1nc(S)nc(S)n1	1,3,5-Triazine-2,4(1H,3H)-dithione, 6-(dibutylamino)-	-3.394
COc1cc(C)c(Cc2cnc(N)nc2N)cc1OC	Ormetoprim	-2.25
O=S(=O)([O-])c1cc(Nc2nc(Nc3ccccc3)nc(N(CCO)CCO)n2)ccc1/C=C/c1ccc(Nc2nc(Nc3ccccc3)nc(N(CCO)CCO)n2)cc1S(=O)(=O)[O-].[Na+].[Na+]	C.I. Fluorescent Brightener 28, disodium salt	-1.284
CC(CC(C)(C)C#N)c1ccccc1 (stereo not drawn)	2,2-Dimethyl-4-phenylpentanenitrile	-3.235
Cc1cccc(NC(N)=O)c1	Urea, (3-methylphenyl)-	-1.4
CCOC(=O)C1(OC(=O)Cc2c(C)cc(C)cc2C)CCCC1	Ethyl 1-(2-mesitylacetoxy)cyclopentanecarboxylate	-4.637
C/C=C/C1CCC(C[P+](c2ccccc2)(c2ccccc2)c2ccccc2)CC1.[I-] (stereo partly drawn)	n/a	-3.067
CC(=O)C(N=Nc1ccccc1C(F)(F)F)C(=O)Nc1ccc2[nH]c(=O)[nH]c2c1 (stereo not drawn)	n/a	-7.456
Cc1cc(-c2ccccc2)nnc1NCCN1CCOCC1	Minaprine	-3.629
Cc1cc(N(CCO)CCO)ccc1N=Nc1c(Cl)cc([N+](=O)[O-])cc1Cl	n/a	-5.959
C=COC(=O)c1ccccc1	Vinyl benzoate	-2.623
CC(=O)C(/N=N/c1ccc(Cl)cc1[N+](=O)[O-])C(=O)Nc1ccc2[nH]c(=O)[nH]c2c1 (stereo partly drawn)	C.I. Pigment Orange 36	-7.474
O=C1CCC(C2CCC(c3ccc(F)c(F)c3)CC2)CC1 (stereo not drawn)	n/a	-5.187
CC1Cc2ccccc2N1NC(=O)c1ccc(Cl)c(S(N)(=O)=O)c1 (stereo not drawn)	Indapamide	-4.029
O=C1Cc2ccccc2O1	(3H)-Benzofuran-2-one	-1.511
CC(C)(C)C1CCC(=O)CC1	4-tert-Butylcyclohexanone	-2.417
CCCCN(CCCC)C(=O)c1ccc(C2=C3C(=O)NC(c4ccc(Cl)cc4)=C3C(=O)N2)cc1	n/a	-6.98
Clc1cc(Cl)c(Oc2ccccc2)c(Cl)c1	2,4,6-Trichlorodiphenyl ether	-6.11
CN[C@@H]1[C@@H](O[C@H]2O[C@H](CO)[C@@H](N)[C@H](O)[C@H]2O)O[C@H]2C[C@@H](N)[C@@H](O[C@H]3[C@H](O)[C@@H](O)[C@H](N)C[C@@H]3N)O[C@@H]2[C@@H]1O	Apramycin	-0.255
CC1(C)CCC(C)(C)c2cc(NC(=O)c3ccc(C(=O)O)cc3)ccc21	Tamibarotene	-5.786
CC(=O)Nc1ccc(F)cc1	4-Fluoroacetanilide	-1.675
CC[C@H](NC(C)C)[C@H](O)c1ccc(O)c2[nH]c(=O)ccc12	Procaterol	-2.946
COc1ccc([N+](=O)[O-])cc1N=NC(C(C)=O)C(=O)Nc1ccccc1OC (stereo not drawn)	n/a	-7.308
C[N+](C)(C)[O-]	N,N-Dimethyl-methanamine-N-oxide	0.781
CCCOC(C(=O)OC1CCN(C)CC1)(c1ccccc1)c1ccccc1	Propiverine	-1.866
C=CC(=O)Oc1c(Cc2cc(C)cc(C(C)(C)C)c2O)cc(C)cc1C(C)(C)C	n/a	-9.506
OCCOC1(F)OC(F)(F)OC1OC(F)(F)F (stereo not drawn)	n/a	-1.817
CC(=O)[C@H](C)NC(N)=O	Alanine, N-(aminocarbonyl)-	-0.778
CC1=C2[C@@H](O)[C@@H]3[C@H](C)C(=O)O[C@@H]3C[C@H](C)[C@H]2CC1=O	n/a	-1.945
CC(=O)c1cccc(C(F)(F)F)c1	Ethanone, 1-[3-(trifluoromethyl)phenyl]-	-2.482
CN(C)CCOC(c1ccc(Cl)cc1)c1ccccn1 (stereo not drawn)	Carbinoxamine	-3.106
CCC(=O)n1ncc2c(=O)[nH]cnc21	1-Propionyl-1,5-dihydro-4H-pyrazolo[3,4-d]pyrimidin-4-one	-2.807
CC(=O)Nc1ccc(NC(=O)c2cc3ccccc3cc2O)cc1	n/a	-5.25
COC(=O)Nc1ncnc2nc[nH]c12	Methyl 7H-purin-6-ylcarbamate	-2.49
O=C1C=CC(=O)N1Cc1cccc(CN2C(=O)C=CC2=O)c1	n/a	-3.897
CC1CCC2CC1C2(C)C (stereo not drawn)	Pinane	-4.414

Source: data files of OPERA 2.9 (Mansouri et al.), github.com/kmansouri/OPERA.